Test results taken from patent US9611251B2, “Substituted piperidine compounds and their use as orexin receptor modulators” (Janssen Pharmaceutica NV, priority 2013, dated 2017).

Amino acid sequences for entries named in this document (tags omitted).
UniProt O43614, whole entry: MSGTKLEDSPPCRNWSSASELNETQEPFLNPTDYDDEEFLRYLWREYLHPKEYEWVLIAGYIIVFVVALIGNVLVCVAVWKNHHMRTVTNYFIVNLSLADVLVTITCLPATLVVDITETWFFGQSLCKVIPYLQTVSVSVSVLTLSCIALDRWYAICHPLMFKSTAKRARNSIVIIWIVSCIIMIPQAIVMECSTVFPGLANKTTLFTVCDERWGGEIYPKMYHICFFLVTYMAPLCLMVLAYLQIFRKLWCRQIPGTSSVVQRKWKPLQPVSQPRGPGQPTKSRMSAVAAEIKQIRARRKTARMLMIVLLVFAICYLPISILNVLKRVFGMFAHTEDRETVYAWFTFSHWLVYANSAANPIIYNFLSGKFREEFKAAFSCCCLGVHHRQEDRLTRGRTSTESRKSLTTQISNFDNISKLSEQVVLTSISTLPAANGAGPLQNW

What was measured:
rat orexin 1 receptor = rat orexin 1 receptor (Rattus norvegicus, UniProt P56718); assay: Rat orexin 1 receptor radioligand binding; conditions: averages of 2-20 runs, read-out: rOX1 Ki
Description: (§1) Data are analyzed using pc-Sandy macro and graphed on Graphpad Prism 5. For analysis, each concentration point is averaged from triplicate values and the averaged values are plotted on Graphpad Prism. The IC50 was determined by applying the following equation (GraphPad Prism 5.0, SanDiego) for one site competition where X=log (concentration) and Y=specific binding. Top denotes the total [^3H]-(1-(5-(2-fluoro-phenyl)-2-methyl-thiazol-4-yl)-1-((S)-2-(5-phenyl-(1,3,4)oxadiazol-2-ylmethyl)-pyrrolidin-1-yl)-methanone) binding, bottom denotes the nonspecific [^3H]-(1-(5-(2-fluoro-phenyl)-2-methyl-thiazol-4-yl)-1-((S)-2-(5-phenyl-(1,3,4)oxadiazol-2-ylmethyl)-pyrrolidin-1-yl)-methanone) binding. Graphpad Prism calculates Ki value from IC50 and the pre-determined Kd values for [^3H]-(1-(5-(2-fluoro-phenyl)-2-methyl-thiazol-4-yl)-1-((S)-2-(5-phenyl-(1,3,4)oxadiazol-2-ylmethyl)-pyrrolidin-1-yl)-methanone) and [3H]-EMPA. The Ki for each compound is then uploaded into 3DX. Each run comprises individual compounds in triplicate.
Rat and Human Orexin 1 Receptor Radioligand Binding Studies
After centrifugation (2K×G, 5 min at 4° C.), the supernatant was aspirated and the pellets frozen and stored at −80° C. […] Each cell pellet from a 15 cm plate was resuspended in 10 mL, stored on ice, and homogenized for 45 sec prior to addition to the reactions. Competition binding experiments in 96 well polypropylene plates were performed using [^3H]-(1-(5-(2-fluoro-phenyl)-2-methyl-thiazol-4-yl)-1-((S)-2-(5-phenyl-(1,3,4)oxadiazol-2-ylmethyl)-pyrrolidin-1-yl)-methanone) (Moraveck Corporation, specific activity=35.3 Ci/mmol), diluted to a 10 nM concentration in PBS (4 nM final). […] The final concentration of DMSO in the reactions is equal to or less than 0.1%. Total and nonspecific binding was determined in the absence and presence of 10 μM almorexant. […] Plates were dried in 55° C. oven for 60 min, scintillation fluid was added, and the radioactivity was counted on a Topcount (Packard).

human orexin 1 receptor = human orexin 1 receptor (Homo sapiens, UniProt O43613); assay: Human orexin 1 receptor radioligand binding; conditions: averages of 2-20 runs, read-out: hOX1 Ki
Description: The in vitro affinity of the compounds of the invention for the rat/human orexin 1 and human orexin 2 receptors was determined by competitive radioligand binding using [^3H](1-(5-(2-fluoro-phenyl)-2-methyl-thiazol-4-yl)-1-((S)-2-(5-phenyl-(1,3,4)oxadiazol-2-ylmethyl)-pyrrolidin-1-yl)-methanone) (Langmead et al., 2004) and [^3H]EMPA (n-ethyl-2[96-methoxypyridin-3-yl)-(toluene-2-sulfonyl)-amino]-N-pyridin-3-ylmethyl acetamide), respectively (Langmead et al., 2004, British Journal of Pharmacology 141:340-346; Malherbe et al., 2004, British Journal of Pharmacology 156:1326-41).
Data are analyzed using pc-Sandy macro and graphed on Graphpad Prism 5. For analysis, each concentration point is averaged from triplicate values and the averaged values are plotted on Graphpad Prism. The IC50 was determined by applying the following equation (GraphPad Prism 5.0, SanDiego) for one site competition where X=log (concentration) and Y=specific binding. […] Graphpad Prism calculates Ki value from IC50 and the pre-determined Kd values for [^3H]-(1-(5-(2-fluoro-phenyl)-2-methyl-thiazol-4-yl)-1-((S)-2-(5-phenyl-(1,3,4)oxadiazol-2-ylmethyl)-pyrrolidin-1-yl)-methanone) and [3H]-EMPA. […]
Human Embryonic Kidney 293 cells (HEK293) stably expressing rat orexin 1 receptor (Genebank accession number NM_001525) or Chinese ovary cells (CHO) stably expressing human orexin 1 receptor (Genebank accession number NM_001526) were grown to confluency in DMEM (Hyclone, cat #SH30022), 10% FBS, 1×Pen/Strep, 1× sodium pyruvate, 10 mM HEPES, 600 μg/mL G418 and DMEM/F12 (Gibco, Cat #11039), 10% FBS, 1×Pen/Strep, 600 μg/mL G418 media, respectively on 150 cm^2 tissue culture plates, washed with 5 mM EDTA in PBS (HyClone Dulbecco's Phosphate Buffered Saline 1× with Calcium and Magnesium, Cat #SH30264.01, hereafter referred to simply as PBS) and scraped into 50 ml tubes. […] Total and nonspecific binding was determined in the absence and presence of 10 μM almorexant. […]

human orexin 2 receptor = human orexin 2 receptor (Homo sapiens (Human), UniProt O43614); assay: Human orexin 2 receptor radioligand binding ([3H]-EMPA); conditions: averages of 2-20 runs, read-out: hOX2 Ki
Description: as §1
Human Orexin 2 Receptor Radioligand Binding Studies
HEK293 stably expressing human orexin 2 receptor (Genebank accession number NM_001526) were grown to confluency in DMEM (Hyclone, cat #SH30022), 10% FBS, 1×Pen/Strep, 1× NaPyruvate, 10 mM HEPES, 600 ug/ml G418 media on 150 cm^2 tissue culture plates, washed with 5 mM EDTA in PBS (HyClone Dulbecco's Phosphate Buffered Saline 1× with Calcium and Magnesium, Cat #SH30264.01, hereafter referred to simply as PBS) and scraped into 50 ml tubes. After centrifugation (2K×G, 5 min at 4° C.), the supernatant was aspirated and the pellets frozen and stored at −80° C. […] Each cell pellet from a 15 cm plate was resuspended in 10 mL, stored on ice, and homogenized for 45 sec just prior to addition to the reactions. […] Total and nonspecific binding was determined in the absence and presence of 10 μM almorexant. […] Plates were dried in 55° C. oven for 60 min, scintillation fluid was added, and the radioactivity was counted on a Topcount (Packard).

Row | Ki (rat orexin 1 receptor) | Ki (human orexin 1 receptor) | Ki (human orexin 2 receptor) | Compound
1 | 0.006 µM | 0.009 µM | – | C[C@H]1[C@H](Nc2ccc(Cl)cn2)CCCN1C(=O)c1ccccc1-n1nccn1 [Example 100, (2-(2H-1,2,3-triazol-2-yl)phenyl)((2S,3R)-3-((5-chloropyridin-2-yl)amino)-2-methylpiperidin-1-yl)methanone]
2 | – | – | 2.5 µM | Cc1cnc(C(=O)N2CCC[C@@H](N(C)c3nc4ccccc4o3)[C@@H]2C)c(-n2nccn2)c1 (relative stereo) [Example 187, ((2S*,3R*)-3-(benzo[d]oxazol-2-yl(methyl)amino)-2-methylpiperidin-1-yl)(5-methyl-3-(2H-1,2,3-triazol-2-yl)pyridin-2-yl)methanone]
3 | 0.016 µM | 0.016 µM | 0.437 µM | C[C@H]1[C@H](Nc2ccc(C(F)(F)F)cn2)CCCN1C(=O)c1ccccc1-n1nccn1 (racemic) [Example 12, (±)-trans-(2-(2H-1,2,3-triazol-2-yl)phenyl)(2-methyl-3-((5-(trifluoromethyl)pyridin-2-yl)amino)piperidin-1-yl)methanone]
4 | 0.009 µM | 0.007 µM | – | Cc1ccc(-n2nccn2)c(C(=O)N2CCC[C@@H](Oc3ccc(C(F)(F)F)cn3)[C@@H]2C)n1 [Example 108, ((2S,3R)-2-methyl-3-((5-(trifluoromethyl)pyridin-2-yl)oxy)piperidin-1-yl)(6-methyl-3-(2H-1,2,3-triazol-2-yl)pyridin-2-yl)methanone]
5 | – | – | 0.755 µM | C[C@H]1[C@H](Nc2ccc(C(F)(F)F)cn2)CCCN1C(=O)c1ccc(F)cc1-c1ncco1 (relative stereo) [Example 203, (4-fluoro-2-(oxazol-2-yl)phenyl)((2S*,3R*)-2-methyl-3-((5-(trifluoromethyl)pyridin-2-yl)amino)piperidin-1-yl)methanone]
